For one molecule, IC50 results are on record in ChEMBL document CHEMBL1125413 (J Med Chem, 1992).

Chains of the proteins cited; added tags and fusions are not shown.
UniProt P23977, whole entry: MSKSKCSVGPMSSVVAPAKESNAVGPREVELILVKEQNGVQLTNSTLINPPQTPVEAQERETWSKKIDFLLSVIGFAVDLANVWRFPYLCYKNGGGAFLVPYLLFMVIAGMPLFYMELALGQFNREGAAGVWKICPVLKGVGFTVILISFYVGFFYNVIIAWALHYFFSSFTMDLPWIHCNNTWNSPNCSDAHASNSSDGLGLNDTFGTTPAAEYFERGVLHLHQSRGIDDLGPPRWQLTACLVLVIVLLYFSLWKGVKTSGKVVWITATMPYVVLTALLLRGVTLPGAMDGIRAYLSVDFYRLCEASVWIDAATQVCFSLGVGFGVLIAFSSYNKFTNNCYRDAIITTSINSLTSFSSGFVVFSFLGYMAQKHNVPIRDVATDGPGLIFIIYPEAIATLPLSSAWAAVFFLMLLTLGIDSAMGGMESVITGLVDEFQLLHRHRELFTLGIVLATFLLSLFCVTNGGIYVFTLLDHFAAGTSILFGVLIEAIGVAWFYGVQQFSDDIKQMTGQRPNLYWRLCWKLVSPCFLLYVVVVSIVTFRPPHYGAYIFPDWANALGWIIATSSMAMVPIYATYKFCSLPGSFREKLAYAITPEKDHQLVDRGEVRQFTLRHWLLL

The target of this test is Sodium-dependent dopamine transporter (Rattus norvegicus, UniProt P23977). Nature of the test: Inhibition of [3H]WIN-35428 binding to the dopamine transporter.

pIC50: −log10 of the molar value.

The molecule `COC(=O)[C@@H]1C2CC[C@H](C[C@@H]1c1ccc(OC)cc1)N2C` showed a pIC50 of 8.10.

For orientation: pIC50 means the negative decadic logarithm of the IC50, by convention in mol/L. Low values mean a large IC50, high ones a small IC50.
